Molecular target: N-terminal regulatory region of aurora kinase A, residues 1-131 (NAurA) (Homo sapiens (Human)) (UniProt O14965)
Test: 13C-detected CON NMR, molar ratio apo-CaM:NAurA 0.18:1

decrease in CON peak height, majority of remaining residues within the 54-68 segment of NAurA: > 50%
Substance: calcium-free chicken Calmodulin (apo-CaM) (from UniProt P62149 2-149)

— patent US20180080942A1
